Data taken from patent US10898576B2, “Glucocorticoid combined with polyethylene glycol-modified interleukin 2 for treating respiratory disease” (priority 2016, dated 2021).

Tested on: asthma mice
Assay: Lung function measurement (methacholine provocation, airway resistance) in OVA asthma mice
Type: in vivo, BALB/c mice
Conditions: 20,000 IU PEG-modified IL-2 in combination with 4 μg Bud, 3 days continuous administration, p<0.05
Experimental: Female BALB/c mice aged 6-8 weeks (purchased from SLAC Laboratory Animal Co., Ltd.) were used for modeling of asthma, which were sensitized by intraperitoneal injection with 100 μg of ovalbumin (OVA) (Sigma) and 2 mg of Al(OH)3 for injection (Sigma) on days 1 and 8, and challenged by daily nasal instillation with 20 μl of 2% OVA on days 9-14 (FIG. 1A).
The asthma mice model of Example 1 were subjected to drug intervention while challenge by nasal instillation on days 12-14. The specific administration method was that the mice were anesthetized with 7% chloral hydrate (Sangon Biotech (Shanghai) Co., Ltd.) and then administrated quantitatively through atomization in the lung using an atomization metered dosing device (MicroSprayer®—Model IA-1B), and the administration volume was fixed at 25 ul/mouse, and the administration dose was adjusted by the level of concentration. On the 15th day, relevant indicators were detected.
Lung function measurement. After being anesthetized with 2% pentobarbital sodium, the mice were subjected to respiratory provocation test with methacholine (Sigma) at 3.125 mg/ml, 6.25 mg/ml, and 12.5 mg/ml prepared in PBS, respectively. The airway resistance curve was plotted and analyzed (FinePoint NAM). The assay was performed using the BUXCO Airway Resistance and Lung Compliance System (BUXCO Electronics).

Row | Substance | airway resistance
1 | 20 KD branched PEG-modified IL-2: IL-2 modified with 20 kD branched PEG; tested in combination with 4 μg Bud | a decrease in airway resistance was observed
2 | 10 KD non-branched PEG-modified IL-2: IL-2 modified with 10 kD non-branched PEG; tested in combination with 4 μg Bud | a decrease in airway resistance was observed
